## Reported melting point values for industrial, environmental and drug-like chemicals

Values as listed in the OPERA 2.9 repository of K. Mansouri.

Melting points are in °C.
"via" names the databases from which the curators took the value.

SMILES,MP (°C),via
O=C(O)C=Cc1ccccc1OC(F)F,165,OCHEM
CCCCCCCCCCCCCCCCCCNC(=O)/C=C\C(=O)O,111,eChemPortal
CCCCCCC(O)CCCCCCCCCCC(=O)NCCO (configuration not stated),202.6,eChemPortal
NC(=S)C1CCCC1,85,OCHEM
NC(=O)Nc1cccc(N)c1,126,OCHEM
N#CCc1ccc(C(N)=O)cc1,187,OCHEM
CCOC(=O)c1ccccc1NC,39,PubChem
O=C(O)COc1ccc(Cl)c2ccccc12,163,OCHEM
O=C(O)CCc1nc2ccccc2[nH]c1=O,264,OCHEM
C[N+](C)(C)CC(O)CC(=O)O.C[N+](C)(C)CC(O)CC(=O)O.O=C([O-])C(O)C(O)C(=O)[O-],179.4,eChemPortal
COc1ccc(C(F)(F)F)cc1CBr,35.5,OCHEM
CCOc1ccc(N2CC(C(=O)O)CC2=O)cc1 (configuration not stated),135,OCHEM
CSc1ccc([N+](=O)[O-])c(C(=O)O)c1,177,OCHEM
C=COC1CCCCC1,-109,eChemPortal
O=C(O)CCc1ccc(-c2ccccc2F)o1,118,OCHEM
Nc1cccc(NC(=O)c2cccnc2)c1,156,OCHEM
Cc1sc(N)nc1-c1cccc(Cl)c1,92,OCHEM
CC(C)C1CCC(CO)CC1 (configuration not stated),-20.07,eChemPortal
COc1ccc(C)cc1C=CC(=O)O,142,OCHEM
O=C(O)c1ccccc1OCc1ccc(F)cc1,82,OCHEM
COc1cccc(NC(=O)CC#N)c1,155,OCHEM
CC(N)c1ccc(-n2cncn2)cc1 (configuration not stated),79,OCHEM
Nc1nc(-c2cc3ccccc3o2)cs1,244,OCHEM
COc1ccccc1-c1n[nH]c(=S)o1,244,OCHEM
CC(C)CCCCCCCCCCCCCCCOC(=O)CCCCCCCCCCCCCCC(C)C,-3,eChemPortal
CN(C)S(=O)(=O)c1ccc(Br)c(C(=O)O)c1,175,OCHEM
OCc1c(Cl)nc2sccn12,175,OCHEM
CCCn1c(N)cc(=O)n(C)c1=O,167,OCHEM
Cc1c(I)cccc1[N+](=O)[O-],35,OCHEM
O=C(O)c1csc2c1CCCC2,160,OCHEM
NC(=[NH2+])c1ccc(OCCCCCCOc2ccc(C(N)=[NH2+])cc2)cc1.O=S(=O)(O)CC[O-].O=S(=O)(O)CC[O-],217,eChemPortal
CCC(CC)C(=O)OCCOCCOCCOC(=O)C(CC)CC,-10,"OCHEM, PubChem"
CC[C@H]1OC(=O)C[C@@H](O)[C@H](C)[C@@H](O[C@@H]2O[C@H](C)[C@@H](O[C@H]3C[C@@](C)(O)[C@@H](O)[C@H](C)O3)[C@H](N(C)C)[C@H]2O)[C@@H](CC=O)C[C@@H](C)C(=O)C=CC(C)=C[C@@H]1CO[C@@H]1O[C@H](C)[C@@H](O)[C@@H](OC)[C@H]1OC,130,"OCHEM, PubChem"
O=S(=O)(c1ccc(Cl)nc1)N1CCCC1,150,OCHEM
COc1cc(C)c(S(=O)(=O)Cl)cc1C,99,OCHEM
Clc1cc(Oc2c(Cl)cc(Cl)c(Cl)c2Cl)c(Cl)c(Cl)c1Cl,205,QSARDB
O=C(O)Cn1c(=O)cnc2ccccc21,197,OCHEM
NC(=O)CCC(=O)O,154.5,OCHEM
Cc1cc(C)n2[nH]c(=O)cc2n1,242,OCHEM
CC(C)[NH2+][B-](F)(F)F,108,eChemPortal
O=C(O)c1sccc1S(=O)(=O)N1CCCCC1,112,OCHEM
CCCCC(CC)C(=O)[O-].CCCCC(CC)C(=O)[O-].[Ni+2] (configuration not stated),50,eChemPortal
O=S(=O)([O-])CCC(F)(F)C(F)(F)C(F)(F)C(F)(F)C(F)(F)C(F)(F)F.[K+],290.2,eChemPortal
O=C=Nc1ccccc1Cc1ccccc1N=C=O,42.24,eChemPortal
CC1(C)COC2(CC[C@H]3[C@@H]4CCC5=CC6(CC[C@@H]5[C@H]4C(=O)C[C@@]32C)SCCS6)OC1,156.3,eChemPortal

The 7 highest values of MP among the entries above:

SMILES	MP (°C)	via
O=S(=O)([O-])CCC(F)(F)C(F)(F)C(F)(F)C(F)(F)C(F)(F)C(F)(F)F.[K+]	290.2	eChemPortal
O=C(O)CCc1nc2ccccc2[nH]c1=O	264	OCHEM
COc1ccccc1-c1n[nH]c(=S)o1	244	OCHEM
Nc1nc(-c2cc3ccccc3o2)cs1	244	OCHEM
Cc1cc(C)n2[nH]c(=O)cc2n1	242	OCHEM
NC(=[NH2+])c1ccc(OCCCCCCOc2ccc(C(N)=[NH2+])cc2)cc1.O=S(=O)(O)CC[O-].O=S(=O)(O)CC[O-]	217	eChemPortal
Clc1cc(Oc2c(Cl)cc(Cl)c(Cl)c2Cl)c(Cl)c(Cl)c1Cl	205	QSARDB

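The numbers are reported measurements, compiled and curated for the OPERA QSAR suite. A listed value is a point estimate from one report or more. Method, purity and exact conditions of the single measurements are not given. The measured form (salt, isomer or mixture) is not always the one drawn. Some upstream entries may be estimates or bounds without being marked so.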